Test results as given in paper PMC9476183 (ACS Omega, 2022).

Target: T1, recombinant human CYP1B1 (Homo sapiens, UniProt Q16678)
T1 sequence (Q16678 1-543): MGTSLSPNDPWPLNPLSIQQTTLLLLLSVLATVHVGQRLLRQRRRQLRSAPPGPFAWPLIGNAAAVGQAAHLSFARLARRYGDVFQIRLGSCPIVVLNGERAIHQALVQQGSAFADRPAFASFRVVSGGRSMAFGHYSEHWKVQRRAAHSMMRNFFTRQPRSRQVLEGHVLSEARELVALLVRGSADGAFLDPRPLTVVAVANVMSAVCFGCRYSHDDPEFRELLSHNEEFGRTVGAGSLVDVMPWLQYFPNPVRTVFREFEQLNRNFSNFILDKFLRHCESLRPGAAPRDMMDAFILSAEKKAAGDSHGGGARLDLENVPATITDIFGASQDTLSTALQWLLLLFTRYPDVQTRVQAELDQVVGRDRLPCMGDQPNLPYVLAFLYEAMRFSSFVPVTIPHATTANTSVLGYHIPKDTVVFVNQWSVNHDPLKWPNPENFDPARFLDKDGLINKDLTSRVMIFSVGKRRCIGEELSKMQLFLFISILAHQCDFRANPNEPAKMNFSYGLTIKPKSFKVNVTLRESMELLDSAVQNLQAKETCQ
Assay: EROD assay, CYP1B1 inhibition
Details: IC50 CYP1B1 ± SD, recombinant human enzyme, triplicate

Q: For `O=c1cc(-c2ccccc2)oc2c1ccc1ccccc12` [ANF, α-naphthoflavone], which IC50 is on record?
A: 20 ± 10 nM
